Only a part is listed here, and it is no random draw. The source made the active and inactive calls.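 How the source made its calls: active means inhibition above about 35% when tested at 20 µM (limit read from the data); inactive means the rest.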

Sequences of proteins named here, by UniProt entry; tags and fusion partners are left off.
UniProt Q2TB90, whole entry: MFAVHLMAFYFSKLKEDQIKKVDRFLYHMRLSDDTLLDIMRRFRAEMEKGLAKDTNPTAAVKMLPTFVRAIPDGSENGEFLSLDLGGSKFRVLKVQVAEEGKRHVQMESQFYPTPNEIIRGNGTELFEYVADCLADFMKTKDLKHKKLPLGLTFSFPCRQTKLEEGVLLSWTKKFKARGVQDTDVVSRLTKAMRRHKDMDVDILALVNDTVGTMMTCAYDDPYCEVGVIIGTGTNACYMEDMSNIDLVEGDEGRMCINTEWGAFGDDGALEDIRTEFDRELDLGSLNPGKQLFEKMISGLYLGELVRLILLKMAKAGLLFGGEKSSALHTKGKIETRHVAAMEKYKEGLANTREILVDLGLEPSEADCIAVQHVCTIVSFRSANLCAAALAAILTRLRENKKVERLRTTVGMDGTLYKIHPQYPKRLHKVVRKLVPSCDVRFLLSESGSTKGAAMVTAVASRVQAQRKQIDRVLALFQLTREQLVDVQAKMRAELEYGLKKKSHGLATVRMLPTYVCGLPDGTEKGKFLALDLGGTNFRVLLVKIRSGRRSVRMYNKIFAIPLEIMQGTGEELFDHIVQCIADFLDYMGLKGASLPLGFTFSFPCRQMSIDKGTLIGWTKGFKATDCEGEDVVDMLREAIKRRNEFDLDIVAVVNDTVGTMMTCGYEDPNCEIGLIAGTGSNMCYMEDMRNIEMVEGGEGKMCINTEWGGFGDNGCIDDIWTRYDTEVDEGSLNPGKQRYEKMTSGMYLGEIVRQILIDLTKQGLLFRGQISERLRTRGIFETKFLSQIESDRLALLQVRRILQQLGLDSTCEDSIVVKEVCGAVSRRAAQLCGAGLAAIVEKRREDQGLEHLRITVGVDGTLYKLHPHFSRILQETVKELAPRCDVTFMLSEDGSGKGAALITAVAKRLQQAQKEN

The test deals with Hexokinase HKDC1 (Homo sapiens) (UniProt Q2TB90). The test can be described thus: HKDC1 hexokinase inhibitors, primary screen, biochemical, fluorescence, uHTS (AID 493160).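 Further: plate controls were DMSO wells with enzyme for no effect and DMSO wells lacking enzyme for full effect.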 The conditions noted are these: recombinant HKDC1, G6PDH/diaphorase resazurin coupled fluorescence; at 20 µM; stronger effect = higher value. (The colour change of resazurin is a common sign of viable cells or microbes.)
As usually defined, the inhibition is the relative decrease from the control value, in per cent. In the case of `CC1=C2N=C(C=C3N=C(C(C)=C4[N-][C@@](C)([C@@H]5N=C1[C@](C)(CCC(=O)NC[C@@H](C)OP(=O)([O-])O[C@H]1[C@@H](O)[C@@H](n6cnc7cc(C)c(C)cc76)O[C@@H]1CO)[C@H]5CC(N)=O)[C@@](C)(CC(N)=O)[C@@H]4CCC(N)=O)[C@@](C)(CC(N)=O)[C@@H]3CCC(N)=O)C(C)(C)[C@@H]2CCC(N)=O.[C-]#N.[Co+3]`, the inhibition is inactive: -87.4%.

In the case of `CP(=O)(Nc1ccc(SC(F)(F)F)cc1)Oc1ccccc1` (configuration not stated), the inhibition was inactive: 19.6%.

In the case of `CCCOc1ccc(NP(C)(=O)Oc2ccc(Cl)cc2)cc1` (configuration not stated), the inhibition is inactive: -2.62%.

Regarding `COc1ccccc1OP(C)(=O)Nc1c(C)cccc1C` (configuration not stated), the inhibition is inactive: 0.8%.

As to `CN1CCCCC1COC(=O)C1(O)c2ccccc2CCc2ccccc21` (configuration not stated), the inhibition is inactive: 0.17%.

Turning to `O=C(O)c1cccc(Nc2c([N+](=O)[O-])cc([N+](=O)[O-])cc2[N+](=O)[O-])c1`, the inhibition is inactive: 6.85%.

In the case of `CC1=NCCc2c1[nH]c1ccccc21.O=[N+]([O-])c1cc([N+](=O)[O-])c(O)c([N+](=O)[O-])c1`, the inhibition is inactive: -10.5%.

Consider `Cc1cc(C)cc(OP(C)(=O)Nc2ccc(C)cc2C)c1` (configuration not stated), for which the inhibition is inactive: -10.7%.

In the case of `CCOC(=O)c1ccc(NP(C)(=O)Oc2cc(C)cc(C)c2)cc1` (configuration not stated), the inhibition is inactive: -2.25%.

On to `COc1ccccc1OP(C)(=O)Nc1cccc(Br)c1` (configuration not stated), for which the inhibition was inactive: -2.28%.

As to `CP(=O)(Nc1cccc(Br)c1)Oc1ccccc1` (configuration not stated), the inhibition was inactive: -10.8%.

With `Cc1cc(C)cc(OP(C)(=O)Nc2ccccn2)c1` (configuration not stated), the inhibition is inactive: -11.6%.

As for `Cc1ccc(C)c(NP(C)(=O)Oc2ccccc2)c1` (configuration not stated), the inhibition is inactive: -5.02%.

Consider `CCN(CC)CCCOC(=O)C(O)(c1ccccc1)c1ccccc1`, for which the inhibition is inactive: -0.05%.

Consider `Cc1cccc(C)c1OP(C)(N)=O` (configuration not stated), for which the inhibition is inactive: -1.25%.

Take `CC(C)(C)c1ccc(OP(C)(=O)Nc2ccc(SC(F)(F)F)cc2)cc1` (configuration not stated): the inhibition is inactive: 2.75%.

Regarding `O=[N+]([O-])c1ccc2c(c1)C=Nc1ccccc1O2`, the inhibition was inactive: 13.3%.

`O=[N+]([O-])c1cc([N+](=O)[O-])c(Nc2cccnc2)c([N+](=O)[O-])c1`: the inhibition was inactive: 6.63%.

Take `COc1ccc(OP(C)(=O)Nc2cccc(F)c2)cc1` (configuration not stated): the inhibition was inactive: 1.4%.

In the case of `COc1ccccc1OP(C)(=O)Nc1cc(Cl)ccc1C` (configuration not stated), the inhibition is inactive: -6.01%.

As for `Cc1cc(C)cc(OP(C)(N)=O)c1` (configuration not stated), the inhibition is inactive: -1.21%.

`CCOC(=O)c1ccc(NP(C)(=O)Oc2ccccc2)cc1` (configuration not stated): the inhibition is inactive: -10.4%.

`Cc1ccc(NP(C)(=O)Oc2ccccc2)c(C)c1` (configuration not stated): the inhibition is inactive: -2.01%.

For `COc1ccccc1OP(C)(=O)Nc1ccc(C)cc1` (configuration not stated), the inhibition was inactive: -7.62%.

`COc1ccccc1OP(C)(=O)Nc1ccccc1` (configuration not stated): the inhibition is inactive: -6.94%.

Turning to `CP(=O)(Nc1ccccc1Br)Oc1ccccc1` (configuration not stated), the inhibition was inactive: -7.9%.

Take `CP(=S)(Nn1cnnc1)Oc1ccccc1` (configuration not stated): the inhibition was inactive: 0.85%.

For `Cc1cc(C)cc(OP(C)(=O)Nc2ccc(SC(F)(F)F)cc2)c1` (configuration not stated), the inhibition was inactive: 0.46%.

As to `CCc1ccc(OP(C)(=O)N2CCN(c3ccc([N+](=O)[O-])cc3)CC2)cc1` (configuration not stated), the inhibition is inactive: -2.81%.

For the compound `CP(=O)(NC(=O)Nc1ccccc1)Oc1ccccc1` (configuration not stated), the inhibition was inactive: 6.06%.

Consider `CP(=O)(Oc1ccccc1)OC(c1ccccc1)C(F)(F)F` (configuration not stated), for which the inhibition was inactive: 0.89%.

Take `Cc1cccc(C)c1OP(C)(=O)Nc1ccc(SC(F)(F)F)cc1` (configuration not stated): the inhibition is inactive: 1.4%.

Take `CP(=O)(Nc1ccc(SC(F)(F)F)cc1)Oc1ccc(Cl)cc1` (configuration not stated): the inhibition is inactive: 0.22%.

Consider `CP(=O)(Nc1ccccn1)Oc1ccc(Cl)cc1` (configuration not stated), for which the inhibition was inactive: -12.4%.

As for `CCOP(C)(=S)SCC(=O)NC(C)C(=O)O` (configuration not stated), the inhibition was inactive: -4.79%.

Regarding `CCOC(=O)c1ccc(NP(C)(=O)Oc2ccc(OC)cc2)cc1` (configuration not stated), the inhibition was inactive: 5.53%.

In the case of `O=[N+]([O-])c1cc([N+](=O)[O-])c(O)c([N+](=O)[O-])c1.c1ccc(Oc2ccncc2)cc1`, the inhibition is inactive: -2.81%.
